A value given as a limit tells only on which side of the number the result lay.

Sequences of proteins named here, by UniProt entry; tags and fusion partners are left off.
UniProt Q01726, whole entry: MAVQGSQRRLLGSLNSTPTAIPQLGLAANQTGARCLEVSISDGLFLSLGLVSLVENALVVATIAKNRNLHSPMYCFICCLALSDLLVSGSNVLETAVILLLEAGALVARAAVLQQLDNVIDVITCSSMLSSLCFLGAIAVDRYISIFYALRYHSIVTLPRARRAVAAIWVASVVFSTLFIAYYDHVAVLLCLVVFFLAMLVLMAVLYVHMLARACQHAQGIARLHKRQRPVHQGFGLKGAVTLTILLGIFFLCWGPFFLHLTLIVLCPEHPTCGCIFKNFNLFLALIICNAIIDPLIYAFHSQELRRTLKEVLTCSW
UniProt P33032, whole entry: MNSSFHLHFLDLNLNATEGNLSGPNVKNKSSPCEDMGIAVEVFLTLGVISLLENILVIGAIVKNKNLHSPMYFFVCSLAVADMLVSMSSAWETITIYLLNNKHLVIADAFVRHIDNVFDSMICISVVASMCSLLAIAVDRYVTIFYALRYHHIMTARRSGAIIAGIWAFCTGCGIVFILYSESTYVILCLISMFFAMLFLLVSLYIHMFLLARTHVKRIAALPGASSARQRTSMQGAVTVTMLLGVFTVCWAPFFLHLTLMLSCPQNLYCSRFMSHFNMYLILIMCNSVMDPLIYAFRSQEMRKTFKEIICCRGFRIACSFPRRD

Results on four molecules are retold here after patent publication US20080021067A1, “Methods For The Treatment Of Substance Abuse And Addiction” (priority 2004, published 2008).

Assay [1] has as its target T1, hMC1bR (Homo sapiens, UniProt Q01726). Kind of assay: cAMP functional assay (agonist). The settings on record: read-out: cAMP Assay EC50 hMC1bR; cells expressing human melanocortin receptor. In kind it is cell-based.
Assay [2] has as its target T2, hMC5R (Homo sapiens, UniProt P33032). Kind of assay: cAMP functional assay (agonist). Format: cell-based. The settings on record: read-out: cAMP Assay EC50 hMC5R; cells expressing human melanocortin receptor.
The target in assay [3] is T2, hMC5R. Kind of assay: Membrane binding assay, 125I-NDP-alpha-MSH competition. The settings on record: read-out: Binding Assay IC50 hMC5R; cloned human MCR in mouse L- or CHO-cell membranes.
The target of assay [4] is T1, hMC1bR. Described as above. The settings on record: read-out: Binding Assay IC50 hMC1bR; cloned human MCR in mouse L- or CHO-cell membranes.

Regarding `CNC(=O)c1cc(C)ccc1C1CCN(C(=O)[C@@H]2CN(C(C)(C)C)C[C@H]2c2ccc(F)cc2F)CC1`, the concentration giving a half-maximal response (EC50) – broadly, the concentration that produces a half-maximal response – on hMC1bR [1] is 1100 nM; at hMC5R [2], above 5000 nM. The concentration for half-maximal inhibition (IC50) (usually the point on the concentration scale where inhibition reaches its midpoint) on hMC5R [3] came to 3900 nM.

Turning to `CNC(=O)c1ccc(F)cc1C1CCN(C(=O)[C@@H]2CN(C(C)(C)C)C[C@H]2c2ccc(F)cc2F)CC1`, the EC50 at hMC1bR [1] came to 1800 nM.

For the molecule `CNC(=O)c1ccc(C)cc1C1CCN(C(=O)[C@@H]2CN(C(C)(C)C)C[C@H]2c2ccc(F)cc2F)CC1`, on hMC1bR [1], the concentration giving a half-maximal response (EC50) is 580 nM.

For the molecule `CNC(=O)c1cc(F)ccc1C1CCN(C(=O)[C@@H]2CN(C(C)(C)C)C[C@H]2c2ccc(F)cc2F)CC1`, the EC50 at hMC1bR [1] was 1800 nM; at hMC5R [2], above 5000 nM. Moreover, the IC50 was determined as 7600 nM at hMC1bR [4] and 5250 nM at hMC5R [3].
